Consider 1 compound from patent publication US20240207285A1 (Melt Pharmaceuticals, Inc., priority 2022, published 2024).

The nature of the series: Phase 1 relative bioavailability study: plasma pharmacokinetics of midazolam, 1-hydroxymidazolam, ketamine and norketamine. The following applies: Treatment D: ketamine 18 mg IV; mean. The procedure: PK analysis was performed using noncompartmental methods in Phoenix WinNonlin® (Version 8.1, Certara, L.P.) in conjunction with the internet-accessible implementation of the Pharsight® Knowledgebase Server™ (PKSO; Version 4.0.4, Certara, L.P). PKSO provides protected and structured storage, audit trails, and version control for study data, analyses, and related files, supporting 21 CFR Part 11 compliance. The analysis was performed in accordance with the Statistical Analysis Plan (Version 1.0, 5 Jan. 2021).
During the PK analysis, concentrations below the limit of quantitation (BLQ) up to the time of the first quantifiable concentration were treated as zero. Embedded (values between 2 quantifiable concentrations) and terminal BLQ concentrations were treated as “missing”. Calculation of the PK characteristics were based on actual elapsed times [h] (relative to time of dose).
All PK analyses were performed on the data from the PK Analysis Population. […] The ANOVA model included factors for sequence, subject within sequence, treatment, and period.

Turning to `CNC1(c2ccccc2Cl)CCCCC1=O` (stereo not shown) [Ketamine, 2-(2-chlorophenyl)-2-(methylamino)cyclohexanone], the “Tlast, ketamine” value came out at 23.7 h.
